Measurements reported in ChEMBL document CHEMBL5728533, “Farnesoid X receptor modulators” (2021).

Test: AlphaScreen Assay: AlphaScreen was used with the aim of identifying novel modulators by taking advantage of the bimolecular interaction prevailing between FXR and the LXXLL motif present in the NR box of the steroid receptor coactivator 1 (SRC-1).Human FXR-LBD-GST was incubated with increasing concentrations of the indicated ligands in the presence of biotinylated LXXLL SRC-1 peptide. The AlphaScreen signal increases when the complex receptor-coactivator is formed.

## CC[C@H]1[C@@H](O)C2C3CC[C@H](C(C)CC(C)C(=O)O)[C@@]3(C)C(O)CC2[C@@]2(C)CC[C@@H](O)C[C@@H]12 (stereo partly specified)
  EC50: 175 µM
